Experimental findings from ChEMBL document CHEMBL4732187, “Tetrahydroindazole inhibitors of CDK2/cyclin complexes” (Eur J Med Chem, 2021) are described below.

This assay addresses CDK2/Cyclin A2 (Homo sapiens, UniProt P24941). In words: Inhibition of human N-terminal GST-tagged CDK2 (1 to 298 residues)/Cyclin A (174 to 432 residues) expressed in Escherichia coli Turner (DE3) cells assessed as reduction in ADP formation using PKTPKKAKKL as substrate by resorufin dye based fluorescence assay.

Structures are written as SMILES. pIC50: −log10 of the molar value.

As a reminder, the pIC50 is −log10 of the IC50, conventionally taken in molar units. As to `Cc1nn(-c2ccccc2)c2c1C(=O)CC(C)(C)C2Br` (stereo unspecified), the pIC50 is 4.25.
